Curated experimental data: logP (octanol/water) values

Values as listed in the OPERA 2.9 repository of K. Mansouri.

The octanol-water partition coefficient is given as log10; larger values mean a more lipophilic compound.
"via" names the databases from which the curators took the value.

| structure (SMILES) | logP | via |
|---|---|---|
| O=c1sc2ccccc2c(O)c1C1CC(c2ccc(-c3ccc(Br)cc3)cc2)Cc2ccccc21 (stereo not given) | 5.17 | OCHEM, PubChem |
| CCOC1=CC2=CC[C@@H]3[C@H](CC[C@]4(C)C(=O)CC[C@@H]34)[C@@]2(C)CC1 | 6.4 | eChemPortal |
| Oc1ccc2c3c1O[C@H]1[C@@H](O)CC[C@@]4(O)[C@@H](C2)N(CC2CCC2)CC[C@]314 | 1.4 | PubChem |
| CC(C)(c1ccc(OC#N)cc1)c1ccc(OC#N)cc1 | 3.57 | eChemPortal |
| Cc1cc(C(F)(C(F)(F)F)C(F)(F)F)ccc1NC(=O)c1cccc(I)c1C(=O)NC(C)(C)CS(C)(=O)=O | 4.2 | PubChem |
| CCCCCCCC(=O)Cl | 2.76 | eChemPortal |
| Cc1ccc(C[N+](C)(C)C)o1.[I-] | -1.85 | OCHEM |
| N#Cc1cc([N+](=O)[O-])ccc1N | 1.6 | OCHEM |
| Cl.OC(CNC1CCCCC1)c1ccccc1 (stereo not given) | -0.11 | OCHEM |
| ClCc1ccccc1Cl | 3.32 | OCHEM |
| CC[C@@H](CO)NC(=O)[C@@H]1C=C2c3cccc4c3c(cn4C)C[C@H]2N(C)C1 | 1.5 | PubChem |
| CO[C@@]12[C@H](COC(=N)O)C3=C(C(=O)C(C)=C(N=C4CC=NN4)C3=O)N1C[C@@H]1N[C@@H]12 | 0.08 | OCHEM |
| CN1C(=O)CN=C(c2ccccc2Cl)c2cc(Cl)ccc21 | 3.12 | OCHEM |
| CN(CC[C@H](N)CC(O)=N[C@H]1C=C[C@H](n2ccc(=N)nc2O)O[C@@H]1C(=O)O)C(=N)N | -4.7 | PubChem |
| Clc1ccc(-c2cc(Cl)c(Cl)c(Cl)c2)cc1Cl | 6.89 | OCHEM |
| O=C([O-])C(F)(F)OC1(F)OC(F)(F)OC1(F)OC(F)(F)F.[NH4+] (stereo not given) | -0.38 | eChemPortal |
| COC(=O)CCl | 0.76 | PubChem |
| CC(C)(C)C(=O)O[C@H]1CC[C@]2(C)[C@H]3CC[C@]4(C)C(=O)[C@H]5C[C@H]5[C@H]4[C@@H]3C=C[C@]2(O)C1 | 3.9 | eChemPortal |
| CC(C)OC(=O)OOC(C)(C)C | 2.5 | eChemPortal |
| FC(F)(F)OC(F)(Cl)C(F)(F)Cl (stereo not given) | 2.03 | eChemPortal |
| Cc1cc(Cl)ccc1OCCCC(=O)O | 2.79 | PubChem |
| Cc1cc(C)c(C(=O)P(=O)(C(=O)c2c(C)cc(C)cc2C)c2ccccc2)c(C)c1 | 5.77 | eChemPortal |
| Cc1c([N+](=O)[O-])cc2c(c1[N+](=O)[O-])C(C)(C)CC2(C)C | 4.4 | OCHEM |
| c1ccc2c(c1)Sc1ccccc1N2CC1CN2CCC1CC2 (stereo not given) | 4.7 | PubChem |
| CCC(C)(C)OOC1(OC)CCCCC1 | 4.04 | eChemPortal |
| C[N+](C)(C)Cc1ccco1.[I-] | -2.4 | OCHEM |
| Cc1cc(Cc2cc(C)c(OCC3CO3)c(C)c2)cc(C)c1OCC1CO1 (stereo not given) | 4.17 | eChemPortal |
| COCCOCCO | -0.7 | PubChem, eChemPortal |
| CC(C)COP(=S)(OCC(C)C)SCC(C)C(=O)O (stereo not given) | 3.9 | eChemPortal |
| CNC(=O)c1cc(Cl)cc(C)c1NC(=O)c1cc(Br)nn1-c1ncccc1Cl | 2.76 | PubChem |
| NNC(=O)NN | -2.94 | eChemPortal |
| Clc1ccc2c(c1)Oc1cc(Cl)c(Cl)c(Cl)c1O2 | 6.9 | OCHEM |
| COc1cc(OC)nc(NC(=O)NS(=O)(=O)c2ncccc2C(F)(F)F)n1 | 1.08 | PubChem |
| CCOP(=O)(OCC)SCS(=O)C(C)(C)C (stereo not given) | 2.66 | OCHEM |
| Cc1cc(C)c(N)c(C)c1N | 1.05 | eChemPortal |
| NCC(CC(=O)O)c1ccc(F)cc1 (stereo not given) | -1.6 | OCHEM |
| ClCCCCCCCl | 3.5 | eChemPortal |
| C[C@]12C=CC(=O)C=C1CC[C@@H]1[C@@H]2CC[C@]2(C)OC(=O)CC[C@@H]12 | 3.7 | PubChem |
| CC(C)CC(N(C)C)C1(c2ccc(Cl)cc2)CCC1 (stereo not given) | 5.2 | PubChem |

Extract of 3 entries:

| structure (SMILES) | logP | via |
|---|---|---|
| C[N+](C)(C)Cc1ccco1.[I-] | -2.4 | OCHEM |
| CO[C@@]12[C@H](COC(=N)O)C3=C(C(=O)C(C)=C(N=C4CC=NN4)C3=O)N1C[C@@H]1N[C@@H]12 | 0.08 | OCHEM |
| Cl.OC(CNC1CCCCC1)c1ccccc1 (stereo not given) | -0.11 | OCHEM |

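OPERA's authors assembled the values from existing databases and did not measure them anew. A listed value is a point estimate from one report or more. Conditions of the individual experiments are not part of the data. The measured form (salt, isomer or mixture) is not always the one drawn. Some entries may be limits or estimates that an upstream database listed as plain numbers.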